Values of other authors as cited in patent US6177437A, “Inhibitors of Herpes Simplex virus uracil-DNA glycosylase” (University of Massachusetts Medical Center, priority 1999, dated 2001).

The chains behind the UniProt entries cited, without tags or fusion partners. Where a name states a change or a piece, a line headed by the entry shows the natural chain unless it says otherwise.
UniProt P10186: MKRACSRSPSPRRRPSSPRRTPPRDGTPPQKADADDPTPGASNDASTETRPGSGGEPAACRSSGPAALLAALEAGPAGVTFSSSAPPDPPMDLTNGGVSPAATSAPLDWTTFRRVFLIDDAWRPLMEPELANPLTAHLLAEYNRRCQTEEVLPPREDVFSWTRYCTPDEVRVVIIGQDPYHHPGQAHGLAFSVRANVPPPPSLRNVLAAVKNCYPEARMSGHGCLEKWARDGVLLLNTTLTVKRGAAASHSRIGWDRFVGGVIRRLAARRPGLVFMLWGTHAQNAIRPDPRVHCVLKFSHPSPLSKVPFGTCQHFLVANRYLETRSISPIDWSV

Target: T1, HSV1 uracil-DNA glycosylase (HSV1 UDG) (Human herpesvirus 1, UniProt P10186)
T1 construct: made in house
Settings: cited from earlier work

CCCCc1ccc(Nc2cc(=O)[nH]c(=O)[nH]2)cc1 [Compound 3]
IC50: 150 µM
